{
  "source": "patent US11566039B2",
  "about": "“Lincosamide antibiotics and uses thereof” (President and Fellows of Harvard College, priority 2017, dated 2023)",
  "test_system": "E. faecalis UNT-047 VRE",
  "assay": "microbe, parasite or virus in culture",
  "details": "Enterococcus faecalis",
  "data": [
    {"smiles": "CCC[C@@H]1C[C@@H](C(=O)N[C@@H]([C@H]2O[C@H](SC)[C@H](O)[C@@H](O)[C@H]2O)[C@H](C)Cl)N(C)C1", "note": "[Clindamycin, clindamycin, reference compound]", "values": [
      {"measurement": "MIC", "value": "> 32", "unit": "mg/L"}
    ]}
  ]
}
